In patent publication US4988691A (priority 1989, dated 1991):
Structures can show the parent of a compound that is named as a salt.

Legend:
β-adrenergic receptors = conditions: 3H-dihydroalprenolol 1nM; rat cerebral cortex membranes
[1] = tested on: alpha1 -adrenergic receptors; conditions: 3H-prazosin; table head 1nM (method: 0.5 nM); rat cerebral cortex membranes

For `CN1[C@@H]2CC[C@H]1C[C@@H](OC(=O)c1c[nH]c3ccccc13)C2` [R, 3-endo-tropanyl indol-3-yl carboxylate, reference compound], the “Displacement activity at β-adrenergic receptors” value (β-adrenergic receptors) was “inactive” and the “Displacement activity at α1-adrenergic receptors” value [1] was “inactive”.

With `Cc1cc(C(=O)O[C@H]2C[C@H]3CC[C@@H](C2)N3C)on1` [Compound 5, 3-methylisoxazole-5-carboxylic acid 3-(endo-8-methyl-8-azabicyclo[3,2,1]octyl) ester hydrochloride] the “Displacement activity at β-adrenergic receptors” value (β-adrenergic receptors) was “inactive”.

`NC[C@H](O)c1ccc(O)c(O)c1` [norepinephrine, reference compound] was tested, and the “Displacement activity at α1-adrenergic receptors” value [1] was 900.

`Cc1cc(C(=O)O[C@H]2C[C@H]3CC[C@@H](C2)N3C)no1` [Compound 8, 5-methylisoxazole-3-carboxylic acid 3-(endo-8-methyl-8-azabicyclo[3,2,1]octyl) ester hydrochloride] was tested, and the “Displacement activity at β-adrenergic receptors” value (β-adrenergic receptors) was “inactive”.
